Results taken from PubChem BioAssay AID1479 (National Center for Advancing Translational Sciences (NCATS), 2009).
This is a selection; strong and weak results do not stand in their true shares. Calls of active or inactive are those of the source. The call rests on the fitted dose curve; in most records, active means well fitted curve in either direction with a large enough effect; inconclusive means small, poorly fitted or top-dose-only effect; inactive means flat fitted curve, though single readings scatter.

Experiment: Total Fluorescence Counterscreen for Inhibitors of the Interaction of Thyroid Hormone Receptor and Steroid Receptor Coregulator 2
Details: TRb/SRC2 Texas Red total fluorescence interference
On the % scale 0 is the no-effect control and ±100 the full control effect.

Row | Structure (SMILES) | fluorescence change, negative = quenching (at 106 µM (top of the series)) | fluorescence change, negative = quenching (at 53 µM (top of the series))
1 | COc1ccc(NP(C)(=O)Oc2ccccc2OC)cc1 (stereo not drawn) | inactive: 0.681% | 
2 | COc1ccc(OP(C)(=O)Nc2cccc(Br)c2)cc1 (stereo not drawn) | inactive: -5.58% | 
3 | C/C1=C2N=C(/C=C3N=C(/C(C)=C4\[N-][C@@](C)([C@H]5N=C1[C@@](C)(CCC(=O)NC[C@H](C)OP(=O)([O-])O[C@@H]1[C@H](O)[C@H](n6cnc7cc(C)c(C)cc76)O[C@@H]1CO)[C@@H]5CC(N)=O)[C@](C)(CC(N)=O)[C@H]4CCC(N)=O)[C@@](C)(CC(N)=O)[C@@H]\3CCC(N)=O)C(C)(C)[C@@H]/2CCC(N)=O.[C-]#N.[Co+3] |  | inactive: -2.3%
4 | CCOC(=O)c1ccc(NP(C)(=O)Oc2ccc(Cl)cc2)cc1 (stereo not drawn) | inactive: -2.96% | 
5 | CP(=O)(OC12CC3CC(CC(C3)C1)C2)OC12CC3CC(CC(C3)C1)C2 | inactive: -0.231% | 
6 | CN(C)C(=O)c1c([N+](=O)[O-])cc([N+](=O)[O-])cc1[N+](=O)[O-] | inactive: -2.7% | 
7 | CC(C)(C)c1ccc(OP(C)(=O)O)cc1 | inactive: -2.64% | 
8 | COc1ccccc1OP(C)(=O)Nc1ccccc1Br (stereo not drawn) | inactive: -4.05% | 
9 | CP(=O)(Nc1ccc(Cl)cc1)Oc1ccc(F)cc1 (stereo not drawn) | inactive: -0.0772% | 
10 | OCCSCCO | inactive: -1.67% | 
11 | COc1ccccc1OP(C)(=O)Nc1c(C)n(C)n(-c2ccccc2)c1=O (stereo not drawn) | inactive: -0.434% | 
12 | CCc1ccc(OP(C)(=O)Nc2cccnc2)cc1 (stereo not drawn) | inactive: -4.32% | 
13 | CP(=O)(Oc1ccccc1)N1CCOC1=O (stereo not drawn) | inactive: 0.36% | 
14 | COc1ccc(OP(C)(=O)Nc2ccc(Br)cc2)cc1 (stereo not drawn) | inactive: -1.16% | 
15 | COc1ccccc1OP(C)(=O)Nc1ccc(C)cc1C (stereo not drawn) | inactive: -1.64% | 
16 | CP(=O)(Nc1ccccn1)Oc1ccccc1 (stereo not drawn) | inactive: 3.82% | 
17 | CCc1ccc(OP(C)(=O)O)cc1 | inactive: 0.0137% | 
18 | O=[N+]([O-])c1cc([N+](=O)[O-])c(Nc2ccccn2)c([N+](=O)[O-])c1 | inactive: -0.265% | 
19 | Cc1c(NP(C)(=O)Oc2ccc(C(C)C)cc2)c(=O)n(-c2ccccc2)n1C (stereo not drawn) | inactive: -1.18% | 
20 | COc1ccc(OP(C)(=O)Nc2ccccn2)cc1 (stereo not drawn) | inactive: 1.11% | 
21 | CN(C)CCOC(=O)C(O)(c1ccccc1)C1CCCC1 (stereo not drawn) | inactive: -0.648% | 
22 | COc1ccccc1OP(C)(=O)Nc1ccc(Br)cc1 (stereo not drawn) | inactive: -5.01% | 
23 | CP(=O)(OCCOc1ccccc1)OCCOc1ccccc1 | inactive: -5.03% | 
24 | CP(=O)(Nc1ccc(Cl)cc1Cl)Oc1ccccc1 (stereo not drawn) | inactive: 0.415% | 
25 | Cc1nc2ccc3ccccc3c2o1.O=[N+]([O-])c1cc([N+](=O)[O-])c(O)c([N+](=O)[O-])c1 | inactive: -17.8% | 
26 | COc1ccccc1OP(C)(=O)Nc1ccc(C)c(C)c1 (stereo not drawn) | inactive: -1.32% | 
27 | COc1ccc(OP(C)(=O)Nc2ccccc2Br)cc1 (stereo not drawn) | inactive: -0.892% | 
28 | Cc1cc(C)cc(OP(C)(=O)Nc2cccc(C(F)(F)F)c2)c1 (stereo not drawn) |  | inactive: -2.11%
